Apparent affinities of Ab-14 variants for a coronavirus HR2 peptide

Binding partner: SARS-CoV-2 spike HR2 peptide, sequence PDVDLGDISGINAS.

The variants keep the heavy chain, the linker and the frameworks of Ab-14 (scFv order VH, a (GGGGS)3 linker, VL).
VH: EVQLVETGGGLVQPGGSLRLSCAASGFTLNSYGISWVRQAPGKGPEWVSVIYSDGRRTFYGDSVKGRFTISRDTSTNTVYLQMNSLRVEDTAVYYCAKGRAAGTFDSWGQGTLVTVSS
VL: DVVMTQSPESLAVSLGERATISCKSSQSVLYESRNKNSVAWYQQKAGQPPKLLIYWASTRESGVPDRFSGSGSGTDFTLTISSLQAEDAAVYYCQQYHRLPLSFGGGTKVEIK

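Phage display of a naive human antibody library on the peptide gave the parent. Designed CDR sequences, proposed from the first random library and measured here. Several design methods are mixed in this list. In AlphaSeq, yeast of one mating type display the scFv and yeast of the other type display the target. Mating (16 h, 30 °C) was followed by selection of diploids and sequencing of their barcodes. A regression on co-assayed BCL2-family reference pairs converts the normalised counts of each replicate to an apparent Kd. Each pool was mated in six replicate cultures.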

Variants are written as CDR1, CDR2 and CDR3 of the light chain (limits as in the source). Parent: KSSQSVLYESRNKNSVA, WASTRES, QQYHRLPLS.
This list holds designs with at most six substitutions.
Values are log10 of the apparent Kd in nM; lower means stronger binding.
Replicates are averaged; those with no signal do not enter the mean.
An entry "nd" has no value in the source: the pair was not observed among the diploids in any replicate. This suggests poor binding but is not conclusive.
Empty control strains, which show no peptide, gave a signal in 4% of pairings with all light chain designs; the median was 2.64 and 95% of these signals were weaker than 1.59. No background was subtracted.
The range of this assay differs from that of the first round, and the authors advise against merging the two.
In the paper, a design with two or fewer of six values counts as a poor binder.
Of ten entries with the parent sequence, four were seen in most replicates (averages 0.34 to 2.37), three in one and three in none, so single entries are noisy.

With KVYQSVLYESRNKNSVA | NASTRES | QQYHRLPLS the result was -0.11 (6 of 6 replicates). With KSSQSCLDESHNKNSVA | WASTRES | QQYHRLPLS the result was 2.07 (6 of 6 replicates). The variant HLSDSVLLESRNKNSVA | NASTRES | QQYHRLPLN showed 0.30 (6 of 6 replicates). The variant KSSQSDLYEDRVKNSVA | GASTRES | QQYHRLPLS showed 0.58 (6 of 6 replicates). With KLSQSVLYESRNKNSVA | NASTRES | QQYHRLPLI the result was 0.06 (6 of 6 replicates).

The variant KLPQSVEYESRNKNSVA | NASQRES | QQYHRLPLS showed -0.23 (6 of 6 replicates). The variant KSSQSELYESRNKNSVA | GASTRES | QAYHRLPLS gave 0.33 (6 of 6 replicates). For KSSQSVKFESRNKNSVA | EASTRES | QQYHRLPLS, the assay gave 0.34 (6 of 6 replicates). With KVSQSVLYESGTKNSVA | NASSRES | QQYHRLPLS the result was 0.20 (6 of 6 replicates). With KWLQSVLYESRNKNSVA | HASTRED | QQYHQLPLS the result was nd (0 of 6 replicates).

For KSQQSQGYESRNKNSVA | HASTRED | QQYHRLPLS, the assay gave 0.25 (6 of 6 replicates). The variant KSLQSVLYESRNKNSVA | GASTRED | QQYGRLPLS showed 0.38 (6 of 6 replicates). The variant KMSDSVLYESRNKNSVA | WASERES | QQYHRLPLQ showed 1.17 (6 of 6 replicates). The variant KLSQSDLYESRNKNSVA | HASTREQ | QQYHRLPLS showed 0.46 (6 of 6 replicates). The variant QVSQSHLYESRNKNSVA | EASTREQ | QQYHRLPLS gave -0.24 (6 of 6 replicates).

For KWSQSVLYESLNKNSVA | GASTRES | QQYHRLPLS, the assay gave -0.35 (6 of 6 replicates). With LLSQSVLYESRNAKSVA | WASTRES | QQYHRLPLS the result was 1.45 (4 of 6 replicates). The variant KSSQSELYESANKNSVA | NASQRES | QQYHRLPLS gave 1.28 (4 of 6 replicates). The variant KSSQSVAYESRNKNSVA | WASTRES | QQCHRLPLS gave 2.05 (6 of 6 replicates). The variant KFSQSVLYESRTKNSVA | NANTRET | QQYHRLPLS showed -0.40 (6 of 6 replicates).

With KVKQSVLYESRNKNSVA | NASTRES | QQYHRLPLS the result was -0.43 (6 of 6 replicates). With KFPQSVGYQSRNKNSVA | DASTRES | QQYERLPLS the result was -0.20 (6 of 6 replicates). With KLPQSYLYESRNKNSVA | NASTREV | QQYHRLPLS the result was -0.15 (6 of 6 replicates). The variant HLSQSVLYESRNKNSVA | GASTRES | QQYHRLPLS gave -0.33 (6 of 6 replicates). For KSPQGVLYESRNKNSVA | GASLRES | QQYHRLPLS, the assay gave -0.12 (6 of 6 replicates).

The variant KLSQSVLYESRNCNSVA | NASTRCS | QQYHRLPLS gave 0.17 (6 of 6 replicates). The variant KSSQSVLYESDNKNSVA | QASTRES | QQYHRLPLS gave 0.60 (6 of 6 replicates). For KSSQSVLYESRNKNSVA | DASTRES | QQYHRWILS, the assay gave nd (0 of 6 replicates). The variant KMSQSWLYESRNKNSVA | GASFRES | QQYHRLPLS gave -0.33 (6 of 6 replicates). With KVSQSVLYESRNKNSVA | NASTRCS | QQYHRLPLS the result was 0.24 (6 of 6 replicates).

The variant KLDQGHLYESRNKNSVA | GASTRES | QQYHRLPLS showed 0.22 (6 of 6 replicates). For KSSQIVLYTSANKNSVA | KASTRES | QQYHRLPLS, the assay gave 0.54 (6 of 6 replicates). The variant KSSISSLYESRNKNSVA | EASTRES | QQYHRLPLM gave 0.58 (6 of 6 replicates). The variant KSSQSVLYEMRNKNSVA | WASTRES | QYYHRLPLS gave 2.41 (2 of 6 replicates). For KSSQSWLYESRNKNSVA | WASTRES | QQYHMLPLS, the assay gave 0.79 (6 of 6 replicates).

With KLPQSVLYESRNKNSVA | EASTRED | QSYHRLPLS the result was -0.08 (6 of 6 replicates). For KSSISYLYESQNKNSVA | AASTRES | QQYHRLPLS, the assay gave 0.24 (6 of 6 replicates). With KFSQSVLYESGNKNSVA | GASTRES | QQVHRLPLS the result was 3.70 (2 of 6 replicates).

From the list, the first 2 with no signal in any replicate:

Variant KWLQSVLYESRNKNSVA | HASTRED | QQYHQLPLS showed nd (0 of 6 replicates).
Variant KSSQSVLYESRNKNSVA | DASTRES | QQYHRWILS showed nd (0 of 6 replicates).

Source: Li et al. 2023 (doi:10.1038/s41467-023-39022-2), MIT Lincoln Laboratory and A-Alpha Bio; data file from the FLAb repository.